Sequences of proteins named here, by UniProt entry; tags and fusion partners are left off. A change or cut given only in a name is not applied to a line headed by its entry.
UniProt P04054: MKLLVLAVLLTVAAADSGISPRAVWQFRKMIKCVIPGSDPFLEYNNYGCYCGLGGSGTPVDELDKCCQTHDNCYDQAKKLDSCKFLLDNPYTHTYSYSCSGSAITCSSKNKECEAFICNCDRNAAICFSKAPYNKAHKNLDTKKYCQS

In BindingDB's records for doi:10.1021/jm960395q (Shionogi, 1996):

Experiments:
[1] = Inhibitory activity against recombinant human secretory phospholipase A2 (s-PLA2) by phosphatidylcholine/deoxycholate assay (PC/DOC).
Phospholipase A2 = Phospholipase A2 (Homo sapiens, UniProt P04054); assay: Inhibition of recombinant human secretory phospholipase A2 (sPLA2), chromogenic screening assay.

| IC50 [1] [nM] | IC50 (Phospholipase A2) [nM] | SMILES |
| --- | --- | --- |
| 13 |  | CCc1c(C(=O)C(N)=O)c2c(OCC(=O)O)cccn2c1Cc1ccc(-c2ccccc2)cc1 [(1-Aminooxalyl-3-biphenyl-4-ylmethyl-2-ethyl-indolizin-8-yloxy)-acetic acid] |
| 210 |  | CCc1c(C(=O)C(N)=O)c2c(OCCCC(=O)O)cccn2c1Cc1ccccc1-c1ccccc1 [4-(1-Aminooxalyl-3-biphenyl-2-ylmethyl-2-ethyl-indolizin-8-yloxy)-butyric acid] |
| 7.3 | 17 | CCc1c(C(=O)C(N)=O)c2c(OCC(=O)O)cccn2c1Cc1ccc2ccccc2c1 [(1-Aminooxalyl-2-ethyl-3-naphthalen-2-ylmethyl-indolizin-8-yloxy)-acetic acid] |
| 15 |  | Cc1c(C(=O)C(N)=O)c2c(OCC(=O)O)cccn2c1CC1CCCCC1 [(1-Aminooxalyl-3-cyclohexylmethyl-2-methyl-indolizin-8-yloxy)-acetic acid] |
